The source of these data is patent publication US6022307A, “Substituted dibenzothiophenes having antiangiogenic activity” (American Cyanamid Company, priority 1999, dated 2000).

In experiment [1] the test system is BAE cells. The experiment in a line: Inhibition of binding of 125I-VEGF 165 to BAE cells. The experiment is classed as cell-based, bovine. The conditions noted are these: Bos taurus; inhibition of 125I-VEGF 165 binding to BAE cells; read-out: Cell Assay VEGF 165 IC50 BAE.
Experiment [2] has as its target Flt-1 (Homo sapiens, UniProt P17948). The experiment in a line: Inhibition of Binding of VEGF 165 to Flt-1 Receptor as Measured by SPA Assay. As to conditions: inhibition of 125I-VEGF 165 binding to soluble Flt-1-Fc.
For experiment [3], the system named is HUVEC cells. Nature of the experiment: Inhibition of binding of 125I-VEGF 165 to HUVEC cells. The experiment is classed as cell-based. The conditions noted are these: Homo sapiens; inhibition of 125I-VEGF 165 binding to HUVEC cells; read-out: Cell Assay VEGF 165 IC50 HUVEC.
[4] abbreviates: read-out: SPA Assay Flt-1 IC50 VEGF 165 (converted).

The term IC50 denotes the concentration that inhibits the measured activity by half.

Where a name gives a salt, the structure may show the parent alone. Read-outs that look alike come from different tables or passages of the source.

Consider `O=C(Nc1cc2sc3cc(NC(=O)c4cc5ccccc5s4)c(C(=O)O)cc3c2cc1C(=O)O)c1cc2ccccc2s1` [Example 2, 3,7-Bis-r(benzo[b]thiophene-2-carbonyl)amino]dibenzothiophene-2,8-dicarboxylic acid, disodium salt], for which the IC50 in experiment [1] is 2.5 µg/mL; in experiment [2] (setting [4]), 642 nM.

On to `CCOP(=O)(O)c1cc2c(cc1NC(=O)c1cc3ccccc3s1)S(=O)(=O)c1cc(NC(=O)c3cc4ccccc4s3)c(P(=O)(O)OCC)cc1-2` [Example 23a, [3,7-Bis[(benzo[b]thiophene-2-carbonyl)amino-8-(ethoxyhydroxyphosphoryl)-5,5-dioxo-5H-5λ^6-dibenzothiophen-2-yl]phosphonic acid monoethyl ester, disodium salt], for which the IC50 in experiment [1] was 0.67 µg/mL; in experiment [2] (read-out: SPA Assay Flt-1 IC50 VEGF 165), 2590 nM.

`COc1ccc(/C=C/C(=O)Nc2cc3c(cc2S(=O)(=O)O)-c2cc(S(=O)(=O)O)c(NC(=O)/C=C/c4ccc(OC)c(OC)c4Cl)cc2S3(=O)=O)c(Cl)c1OC` [Example 27, 3,7-Bis[3-(2-chloro-3,4-di-methoxyphenyl)-acryloylamino]-5,5-dioxo-5H-5^6-dibenzothiophene-2,8-disulfonic acid, disodium salt]: the IC50 in experiment [1] was 0.37 µg/mL; in experiment [2] (setting [4]) it was 1750 nM.

Regarding `COc1ccc(/C=C/C(=O)Nc2cc3c(cc2S(=O)(=O)O)-c2cc(S(=O)(=O)O)c(NC(=O)/C=C/c4ccc(OC)cc4)cc2S3(=O)=O)cc1` [Example 30, 3,7-Bis-[3-(4-methoxyphenyl)-acryloylamino]-5,5-dioxo-5H-5^6-dibenzothiophene-2,8-disulfonic acid, disodium salt], the IC50 in experiment [1] is 0.6 µg/mL; in experiment [2] (setting [4]), 1720 nM; in experiment [3] it was 1.2 µg/mL.

Regarding `Cc1ccc(C)c(/C=C/C(=O)Nc2cc3c(cc2S(=O)(=O)O)-c2cc(S(=O)(=O)O)c(NC(=O)/C=C/c4cc(C)ccc4C)cc2S3(=O)=O)c1` [Example 35, 3,7-Bis-[3-(2,5-dimethylphenyl)-acryloylamino]-5,5-dioxo-5H-5^6-dibenzothiophene-2,8-disulfonic acid, disodium], the IC50 in experiment [1] was 0.088 µg/mL; in experiment [2] (setting [4]), 1380 nM.

On to `O=C(Nc1cc2c(cc1S(=O)(=O)O)-c1cc(S(=O)(=O)O)c(NC(=O)c3cc4ccccc4s3)cc1S2(=O)=O)c1cc2ccccc2s1` [Example 40, 3,7-Bis-[(benzo[b]thiophene-2-carbonyl)amino]-5,5-dioxo-5H-5^ -dibenzothiophene-2,8-disulfonic acid, disodium], for which the IC50 in experiment [1] worked out at 2.7 µg/mL.

In the case of `O=C(Nc1cc2c(cc1S(=O)(=O)O)-c1cc(S(=O)(=O)O)c(NC(=O)c3cc4ccccc4o3)cc1S2(=O)=O)c1cc2ccccc2o1` [Example 42, 3,7-Bis[(benzo[b]furan-2-carbonyl)amino]-5,5-dioxo-5H-5^6-dibenzothiophene-2,8-disulfonic acid, disodium salt], the IC50 in experiment [1] is 0.5 µg/mL.

For `O=C(Nc1cc2c(cc1S(=O)(=O)O)-c1cc(S(=O)(=O)O)c(NC(=O)c3cc4sccc4s3)cc1S2(=O)=O)c1cc2sccc2s1` [Example 43, 5,5-Dioxo-3,7-bis-[(thieno[3,2-b]thiophene-2-carbonyl)-amino]-5H-5^6-dibenzothiophene-2,8-disulfonic acid, disodium], the IC50 in experiment [1] was 0.35 µg/mL; in experiment [2] (setting [4]) it was 1350 nM.

Take `Cc1nn(C)c2sc(C(=O)Nc3cc4c(cc3S(=O)(=O)O)-c3cc(S(=O)(=O)O)c(NC(=O)c5cc6c(C)nn(C)c6s5)cc3S4(=O)=O)cc12` [Example 44, 3,7-Bis-[(1,3-di-methyl-1H-thieno[2,3-c]pyrazole-5-carbonyl)amino]-5,5-dioxo-5H-5^6-dibenzothiophene-2,8-disulfonic acid, disodium salt]: the IC50 in experiment [1] is 0.68 µg/mL; in experiment [2] (setting [4]), 3930 nM.

Take `CCCc1c(C(=O)Nc2cc3c(cc2S(=O)(=O)O)-c2cc(S(=O)(=O)O)c(NC(=O)c4cnn(-c5ccc(Cl)cc5)c4CCC)cc2S3(=O)=O)cnn1-c1ccc(Cl)cc1` [Example 45, 3,7-Bis-{[1-(4-chlorophenyl)-5-propyl-1H-pyrazole-4-carbonyl]amino}5,5-dioxo-5H-5^6-dibenzothiophene-2,8-disulfonic acid, disodium salt]: the IC50 in experiment [1] turned out to be 1.6 µg/mL.

For `COc1ccc2cc(C(=O)Nc3cc4c(cc3S(=O)(=O)O)-c3cc(S(=O)(=O)O)c(NC(=O)c5cc6ccc(OC)cc6oc5=O)cc3S4(=O)=O)c(=O)oc2c1` [Example 47, 3,7-Bis-[(7-methoxy-2-oxo-benzopyran-3-yl)-carbonylamino]-5,5-dioxo-5H-5^6-dibenzothiophene-2,8-disulfonic acid, disodium salt], the IC50 in experiment [1] came out at 0.6 µg/mL.

On to `COc1ccc(C(=O)Nc2cc3c(cc2S(=O)(=O)O)-c2cc(S(=O)(=O)O)c(NC(=O)c4ccc(OC)cc4)cc2S3(=O)=O)cc1` [Example 50, 3,7-Bis-(4-methoxybenzoyl-amino)-5,5-dioxo-5H-5^6-dibenzothiophene-2,8-disulfonic acid, disodium salt], for which the half-maximal inhibitory concentration (IC50) in experiment [1] worked out at 0.74 µg/mL.

As for `COc1ccc(C(=O)Nc2cc3c(cc2S(=O)(=O)O)-c2cc(S(=O)(=O)O)c(NC(=O)c4ccc(OC)cc4OC)cc2S3(=O)=O)c(OC)c1` [Example 51, 3,7-Bis-(2,4-dimethoxybenzoyl-amino)-5,5-dioxo-5H-5^6-dibenzothiophene-2,8-disulfonic acid disodium salt], the IC50 in experiment [1] worked out at 1.4 µg/mL.

On to `O=C(Nc1cc2c(cc1S(=O)(=O)O)-c1cc(S(=O)(=O)O)c(NC(=O)c3ccc(S(=O)(=O)c4ccccc4)cc3)cc1S2(=O)=O)c1ccc(S(=O)(=O)c2ccccc2)cc1` [Example 52, 5,5-Dioxo-3,7-bis-(4-phenyl-sulfonylbenzoyl-amino)-5H-5^6-dibenzothiophene-2,8-disulfonic acid, disodium salt], for which the IC50 in experiment [1] turned out to be 2 µg/mL.

In the case of `CCOc1cc2ccccc2cc1C(=O)Nc1cc2c(cc1S(=O)(=O)O)-c1cc(S(=O)(=O)O)c(NC(=O)c3cc4ccccc4cc3OCC)cc1S2(=O)=O` [Example 53, 3,7-Bis-(3-ethoxy-naphthalen-2-ylcarbonylamino)-5,5-dioxo-5H-5^6-dibenzothiophene-2,8-disulfonic acid, disodium salt], the IC50 in experiment [1] came out at 10 µg/mL.

Consider `O=C(Nc1cc2c(cc1S(=O)(=O)O)-c1cc(S(=O)(=O)O)c(NC(=O)c3ccc4cc5ccccc5cc4c3)cc1S2(=O)=O)c1ccc2cc3ccccc3cc2c1` [Example 54, 3,7-Bis-(anthracen-2-ylcarbonylamino)-5,5-dioxo-5H-5^6-dibenzothiophene-2,8-disulfonic acid, disodium salt], for which the IC50 is 0.1 µg/mL in experiment [1], 184 nM in experiment [2] (setting [4]) and 0.18 µg/mL in experiment [3].

On to `O=C(Nc1cc2c(cc1S(=O)(=O)O)-c1cc(S(=O)(=O)O)c(NC(=O)c3ccc4c(c3)C(=O)c3ccccc3C4=O)cc1S2(=O)=O)c1ccc2c(c1)C(=O)c1ccccc1C2=O` [Example 55, 3,7-Bis-[9,10-dihydro-9,10-dioxoanthracen-2-yl)carbonyl-amino]-5,5-dioxo-5H-5^6-dibenzothiophene-2,8-disulfonic acid, disodium salt], for which the IC50 in experiment [1] came to 0.8 µg/mL.

Turning to `O=C(Nc1cc2c(cc1S(=O)(=O)O)-c1cc(S(=O)(=O)O)c(NC(=O)c3ccc4ccccc4c3)cc1S2(=O)=O)c1ccc2ccccc2c1` [Example 57, 3,7-Bis-[(naphthalen-2-yl)carbonylamino]-5,5-dioxo-5H-5^6-dibenzothiophene-2,8-disulfonic acid, disodium salt], the IC50 in experiment [1] was 0.33 µg/mL.

As for `COc1ccc(C(=O)Nc2ccc(C(=O)Nc3cc4c(cc3S(=O)(=O)O)-c3cc(S(=O)(=O)O)c(NC(=O)c5ccc(NC(=O)c6ccc(OC)cc6OC)cc5OC)cc3S4(=O)=O)c(OC)c2)c(OC)c1` [Example 58, 3,7-Bis-({4-[(2,4-dimethoxy-phenyl)carbonyl-amino]-2-methoxy-phenyl}carbonyl-amino)-5,5-dioxo-5H-5^6-dibenzothiophene-2,8-disulfonic acid, disodium salt], the IC50 in experiment [1] worked out at 1 µg/mL.

Turning to `COc1cc(NC(C)=O)ccc1C(=O)Nc1cc2c(cc1S(=O)(=O)O)-c1cc(S(=O)(=O)O)c(NC(=O)c3ccc(NC(C)=O)cc3OC)cc1S2(=O)=O` [Example 59, 3,7-Bis-[(4-acetylamino-2-methoxy-phenyl)carbonylamino]-5,5-dioxo-5H-5^6-dibenzothiophene-2,8-disulfonic acid, disodium salt], in experiment [1], the IC50 turned out to be 0.88 µg/mL.

As to `O=C(Nc1ccc(C(=O)Nc2cc3c(cc2S(=O)(=O)O)-c2cc(S(=O)(=O)O)c(NC(=O)c4ccc(NC(=O)c5ccccc5)cc4)cc2S3(=O)=O)cc1)c1ccccc1` [Example 60, 3,7-Bis-(4-benzoylaminobenzoylamino)-5,5-dioxo-5H-5^6-dibenzothiophene-2,8-disulfonic acid, disodium salt], in experiment [1], the concentration for half-maximal inhibition (IC50) was found to be 0.2 µg/mL.

`COc1ccc(C=CC(=O)Nc2cc3sc4cc(NC(=O)C=Cc5ccc(OC)c(OC)c5Cl)c(C(=O)[O-])cc4c3cc2C(=O)[O-])c(Cl)c1OC.[Na+].[Na+]` [disodium salt]: the IC50 in experiment [2] (setting [4]) is 6280 nM.
